This is an account of results in patent US8633206B2, “Pyrrolo[2,3-D]pyrimidine compounds” (Pfizer Inc., priority 2009, dated 2014).

Protein sequences, listed by entry. Tags and fused reporters are not part of them. Lines headed by an entry give the natural chain unless they say otherwise; changes in a name come on top. Residues count along the entry.
UniProt P52333, 781-1124: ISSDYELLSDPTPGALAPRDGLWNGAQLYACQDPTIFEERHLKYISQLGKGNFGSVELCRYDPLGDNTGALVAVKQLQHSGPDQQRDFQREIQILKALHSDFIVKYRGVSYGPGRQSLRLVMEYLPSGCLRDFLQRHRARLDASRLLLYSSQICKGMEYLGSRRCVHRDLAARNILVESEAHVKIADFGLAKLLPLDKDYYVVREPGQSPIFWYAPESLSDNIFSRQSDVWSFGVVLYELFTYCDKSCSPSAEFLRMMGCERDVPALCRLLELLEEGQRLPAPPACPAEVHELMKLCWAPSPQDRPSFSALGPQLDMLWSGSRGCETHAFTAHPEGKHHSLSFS
UniProt O60674, 808-1132: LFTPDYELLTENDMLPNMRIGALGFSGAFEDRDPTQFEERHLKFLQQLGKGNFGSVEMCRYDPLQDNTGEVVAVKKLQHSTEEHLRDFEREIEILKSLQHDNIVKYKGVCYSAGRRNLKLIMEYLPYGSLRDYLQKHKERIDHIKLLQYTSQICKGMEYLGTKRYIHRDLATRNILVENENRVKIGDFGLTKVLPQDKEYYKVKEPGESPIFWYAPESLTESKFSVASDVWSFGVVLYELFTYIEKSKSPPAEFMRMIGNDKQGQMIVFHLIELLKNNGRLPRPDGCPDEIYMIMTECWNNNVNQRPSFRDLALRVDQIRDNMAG
UniProt P23458: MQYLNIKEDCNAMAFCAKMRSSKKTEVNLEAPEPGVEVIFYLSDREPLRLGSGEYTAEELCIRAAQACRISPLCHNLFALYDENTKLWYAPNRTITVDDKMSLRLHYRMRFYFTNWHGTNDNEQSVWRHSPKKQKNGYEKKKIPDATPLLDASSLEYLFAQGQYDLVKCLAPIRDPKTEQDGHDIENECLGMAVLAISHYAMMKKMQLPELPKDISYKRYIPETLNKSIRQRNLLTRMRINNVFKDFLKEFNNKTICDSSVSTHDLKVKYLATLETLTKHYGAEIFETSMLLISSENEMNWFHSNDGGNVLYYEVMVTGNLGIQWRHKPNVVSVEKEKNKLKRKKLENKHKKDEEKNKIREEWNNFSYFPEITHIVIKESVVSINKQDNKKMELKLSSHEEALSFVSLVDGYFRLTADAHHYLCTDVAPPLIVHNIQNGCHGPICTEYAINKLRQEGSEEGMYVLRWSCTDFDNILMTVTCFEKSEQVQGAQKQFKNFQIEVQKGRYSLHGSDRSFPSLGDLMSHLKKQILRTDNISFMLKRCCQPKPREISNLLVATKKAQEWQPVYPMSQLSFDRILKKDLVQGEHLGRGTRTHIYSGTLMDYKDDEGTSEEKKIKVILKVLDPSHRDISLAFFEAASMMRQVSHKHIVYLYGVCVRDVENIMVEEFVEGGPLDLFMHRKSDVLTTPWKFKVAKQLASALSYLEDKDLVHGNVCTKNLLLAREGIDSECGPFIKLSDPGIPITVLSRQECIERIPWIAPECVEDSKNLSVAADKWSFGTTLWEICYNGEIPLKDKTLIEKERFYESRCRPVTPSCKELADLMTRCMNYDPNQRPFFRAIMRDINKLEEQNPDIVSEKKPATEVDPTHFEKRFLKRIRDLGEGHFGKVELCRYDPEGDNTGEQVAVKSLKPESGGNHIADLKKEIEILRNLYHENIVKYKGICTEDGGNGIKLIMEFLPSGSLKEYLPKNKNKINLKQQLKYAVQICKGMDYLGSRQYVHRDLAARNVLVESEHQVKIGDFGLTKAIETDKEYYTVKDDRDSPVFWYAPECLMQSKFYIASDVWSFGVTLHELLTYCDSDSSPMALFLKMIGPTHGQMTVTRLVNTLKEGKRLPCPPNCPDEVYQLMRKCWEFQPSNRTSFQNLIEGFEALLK

What all share (format): biochemical
The target in one test is JAK3 (Homo sapiens (Human), UniProt P52333). Nature of the test: JAK enzymatic assay (peptide mobility shift), JAK3. Particulars: recombinant JAK3 1 nM, JAKtide peptide, 90 minutes. Here is the method: (§1) Recombinant JAK1 (Catalog Number PV4775), JAK2 (Catalog Number PV4210) and JAK3 (Catalog Number PV3855) were purchased from (Invitrogen Corporation, Madison, Wis.). […] Adenosine 5′-triphosphate (ATP) was obtained from (Sigma Chemical Company, St. Louis, Mo.). […] Coating Reagent 3 was purchased from (Caliper Life Sciences, Hopkinton, Mass.).
(§2) Compounds were diluted serially in 100% dimethyl sulfoxide and tested in an 11 point dose response in duplicate or quadruplicate (200 nl of compound/DMSO was added per 10 L reaction). […] The assay was run for 240 minutes for JAK1, 150 minutes for JAK2, 90 minutes for JAK3 and 70 minutes for Tyk2. […] The plates were placed on a LabChip 3000 (LC3000) instrument from (Caliper Life Sciences) to measure the formation of phosphorylated peptide. Data was analyzed using Hits Well Analyzer Software from (Caliper Life Sciences) to obtain the amount of product formed.
(§3) Data was then imported into an internal application where each data point is expressed as % inhibition based on uninhibited and no enzyme controls. Dose-response data is then fit using a 4 parameter logistic equation (Equation 1) to determine an IC50.

A further test deals with JAK2 (Homo sapiens (Human), UniProt O60674). Description: JAK enzymatic assay (peptide mobility shift), JAK2. Particulars: recombinant JAK2 2 nM, JAKtide peptide, 150 minutes. From the text:
Recombinant JAK1 (Catalog Number PV4775), JAK2 (Catalog Number PV4210) and JAK3 (Catalog Number PV3855) were purchased from (Invitrogen Corporation, Madison, Wis.). Tyk2 (His-Tyk2 (888-1182, C936S, C1142S)) used in this study was expressed and purified at Pfizer Laboratories. Adenosine 5′-triphosphate (ATP) was obtained from (Sigma Chemical Company, St. Louis, Mo.). […] Coating Reagent 3 was purchased from (Caliper Life Sciences, Hopkinton, Mass.).
A peptide mobility shift assay was used to quantify the phosphorylation of the JAKtide (JAK2 and JAK3) or the IRS-1 peptide (JAK1 and Tyk2). Reactions were carried out in a 384-well plate (Matrical MP-101) in a 10 L total volume. […] Compounds were diluted serially in 100% dimethyl sulfoxide and tested in an 11 point dose response in duplicate or quadruplicate (200 nl of compound/DMSO was added per 10 L reaction). The reactions were initiated by the addition of enzyme to the final concentration of 2 nM JAK2, 1 nM JAK3, 12 nM Tyk2 or 20 nM JAK1. The assay was run for 240 minutes for JAK1, 150 minutes for JAK2, 90 minutes for JAK3 and 70 minutes for Tyk2. […] Data was analyzed using Hits Well Analyzer Software from (Caliper Life Sciences) to obtain the amount of product formed.
Data was then imported into an internal application where each data point is expressed as % inhibition based on uninhibited and no enzyme controls. […]

The target in a further test is JAK1 (Homo sapiens (Human), UniProt P23458). Nature of the test: JAK enzymatic assay (peptide mobility shift), JAK1. Particulars: recombinant JAK1 20 nM, IRS-1 peptide, 240 minutes. Here is the method:
as §1, §2, §3

Take `CCOCCO[C@@H]1CCN(S(=O)(=O)C[C@H]2CC[C@H](N(C)c3ncnc4[nH]ccc34)CC2)C1` [Example 28, N-[trans-4-({[(3R)-3-(2-ethoxyethoxy)pyrrolidin-1-yl]sulfonyl}methyl)-cyclohexyl]-N-methyl-7H-pyrrolo[2,3-d]pyrimidin-4-amine]: the IC50 on JAK3 is 249 nM.

For `C[C@@H]1C[C@@H](CS(=O)(=O)N2CC[C@@H](CO)C2)CC[C@@H]1N(C)c1ncnc2[nH]ccc12` [Example 132, {(3R)-1-[({(1S,3R,4S)-3-methyl-4-[methyl(7H-pyrrolo[2,3-d]pyrimidin-4-yl)amino]cyclohexyl}methyl)-sulfonyl]pyrrolidin-3-yl}methanol], the IC50 at JAK2 was determined as 17.8 nM.

Regarding `CN(c1ncnc2[nH]ccc12)[C@H]1CC[C@H](CS(=O)(=O)N2CC[C@H](O)C2)CC1` [Example 25, (3S)-1-[({trans-4-[methyl(7H-pyrrolo[2,3-d]pyrimidin-4-yl)amino]-cyclohexyl}methyl)sulfonyl]-pyrrolidin-3-ol], the IC50 came to 13.3 nM on JAK1 and 335 nM at JAK3.
